Sequences of proteins named here, by UniProt entry; tags and fusion partners are left off.
UniProt P0DMS8, whole entry: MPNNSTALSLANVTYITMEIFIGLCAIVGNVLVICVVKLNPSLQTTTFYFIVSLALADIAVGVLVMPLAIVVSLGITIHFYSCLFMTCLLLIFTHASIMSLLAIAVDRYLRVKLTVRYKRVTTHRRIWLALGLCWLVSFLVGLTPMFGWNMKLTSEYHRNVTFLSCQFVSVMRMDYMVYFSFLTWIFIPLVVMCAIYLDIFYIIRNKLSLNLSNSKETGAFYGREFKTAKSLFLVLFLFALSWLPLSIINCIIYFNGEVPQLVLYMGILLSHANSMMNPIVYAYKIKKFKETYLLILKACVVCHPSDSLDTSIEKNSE

In US8470800B2, “Method of reducing intraocular pressure in humans” (Inotek Pharmaceuticals Corporation, priority 2009, dated 2013):

Columns and labels:
[1] = molecular target: A2A adenosine receptor (Homo sapiens (Human), UniProt P29274); experiment: Adenosine receptor binding selectivity A1 > A2A; conditions: ratio of Ki values
Protocol: (§1) As used herein, the term “selective adenosine A1 agonist” means an A1 agonist that has a high affinity to the A1 receptor while simultaneously having a low affinity for the A2 and A3 adenosine receptors.
(§2) Membranes for radioligand binding experiments are prepared from fresh or frozen cells as described in Klotz et al., Naunyn-Schmiedeberg's Arch. […] The cell suspension is then homogenized in ice-cold hypotonic buffer (5 mM Tris/HCl, 2 mM EDTA, pH 7.4) and the homogenate is spun for 10 minutes (4° C.) at 1,000 g.
(§3) Nonspecific binding is determined in the presence of 100 μM R-PM and 1 mM theophylline, respectively. For details see Klotz et al., Naunyn-Schmiedeberg's Arch.

[2] = molecular target: A3 adenosine receptor (Homo sapiens (Human), UniProt P0DMS8); experiment: Adenosine receptor binding selectivity A1 > A3; conditions: ratio of Ki values
Protocol: as §1, §2, §3

[3] = Clinical study: single topical ocular dose, intraocular pressure in adults with OHT or POAG; format: in vivo, human
Description: The clinical study described herein is a multi-center, randomized, double-blind, placebo-controlled, dose-escalation study of a single topical ocular application of the study drug (i.e., Compound A or placebo) to the one study eye of adults with OHT or POAG. The “study eye” was defined as the eye with the higher mean IOP, recorded between 7:00 and 8:00 AM on the day prior to dosing (Day 0).
The adult subjects were sequentially assigned to 1 of 7 treatment groups. Each treatment group included twelve subjects: 8 subjects randomized to receive 2.5, 7.5, 20, 60, 180, 350 or 700 micrograms of Compound A in the study eye and 4 randomized to receive matched placebo (see Table 1) on Day 1.
Masked-intraocular pressures were determined in duplicate with a Goldmann tonometer following traditional corneal anesthesia. Following determination of the bilateral baseline (predose) IOP measurements on the morning of Day 1, the assigned study drug (Compound A or matched placebo) was instilled as a single 50 μL drop to the one study eye only. Subsequent bilateral external eye examinations and masked-IOP determinations were performed at 9:00 AM, 10:00 AM, 12:00 noon, and 2:00 PM (each ±5 minutes), corresponding to 1, 2, 4, and 6 hours post study drug application. In addition in the 700 mcg cohort an IOP determination was performed at 6:00 PM (18:00), corresponding to 10 hours post study drug application. […]

Row | A1 > A2A SELECTIVITY [KiA2(nm)/KiA1(nm)] [1] | A1 > A3 SELECTIVITY [KiA3(nm)/KiA1(nm)] [2] | Structure (SMILES) | decrease in mean and median IOPs from predose baseline relative to the placebo response ([3]; 350 mcg cohort) | decrease in mean and median IOPs from predose baseline relative to the placebo response ([3]; 700 mcg cohort)
1 | 4837 | 725 | O=[N+]([O-])OC[C@H]1O[C@@H](n2cnc3c(NC4CCCC4)ncnc32)[C@H](O)[C@@H]1O [Compound A, ((2R,3S,4R,5R)-5-(6-(cyclopentylamino)-9H-purin-9-yl)-3,4-dihydroxytetrahydrofuran-2-yl)methyl nitrate] | statistically significant decrease | statistically significant decrease
2 | 192 | 167 | O=[N+]([O-])OC[C@H]1O[C@@H](n2cnc3c(NC4CCCCC4)nc(Cl)nc32)[C@H](O)[C@@H]1O [Compound H, ((2R,3S,4R,5R)-5-(2-chloro-6-(cyclohexylamino)-9H-purin-9-yl)-3,4-dihydroxytetrahydrofuran-2-yl)methyl nitrate] | – | –
